What is called Ki is the equilibrium dissociation constant of an inhibitor or competing ligand from its target.

Sequences of proteins named here, by UniProt entry; tags and fusion partners are left off.
UniProt P25100, whole entry: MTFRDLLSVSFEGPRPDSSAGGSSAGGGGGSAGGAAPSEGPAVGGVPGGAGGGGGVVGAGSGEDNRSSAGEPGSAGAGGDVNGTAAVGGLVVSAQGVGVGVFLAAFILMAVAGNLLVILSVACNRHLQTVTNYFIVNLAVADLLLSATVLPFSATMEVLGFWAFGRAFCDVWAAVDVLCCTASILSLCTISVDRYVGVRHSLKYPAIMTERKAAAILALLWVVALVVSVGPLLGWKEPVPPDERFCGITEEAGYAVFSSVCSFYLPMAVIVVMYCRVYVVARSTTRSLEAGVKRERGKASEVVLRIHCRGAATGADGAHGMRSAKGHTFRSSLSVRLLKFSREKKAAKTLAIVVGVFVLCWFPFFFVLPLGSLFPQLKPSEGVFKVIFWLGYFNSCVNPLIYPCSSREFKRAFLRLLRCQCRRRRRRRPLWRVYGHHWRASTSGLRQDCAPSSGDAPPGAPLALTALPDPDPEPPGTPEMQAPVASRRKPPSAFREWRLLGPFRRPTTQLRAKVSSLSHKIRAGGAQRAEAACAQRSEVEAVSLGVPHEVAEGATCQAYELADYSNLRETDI
UniProt P35368, whole entry: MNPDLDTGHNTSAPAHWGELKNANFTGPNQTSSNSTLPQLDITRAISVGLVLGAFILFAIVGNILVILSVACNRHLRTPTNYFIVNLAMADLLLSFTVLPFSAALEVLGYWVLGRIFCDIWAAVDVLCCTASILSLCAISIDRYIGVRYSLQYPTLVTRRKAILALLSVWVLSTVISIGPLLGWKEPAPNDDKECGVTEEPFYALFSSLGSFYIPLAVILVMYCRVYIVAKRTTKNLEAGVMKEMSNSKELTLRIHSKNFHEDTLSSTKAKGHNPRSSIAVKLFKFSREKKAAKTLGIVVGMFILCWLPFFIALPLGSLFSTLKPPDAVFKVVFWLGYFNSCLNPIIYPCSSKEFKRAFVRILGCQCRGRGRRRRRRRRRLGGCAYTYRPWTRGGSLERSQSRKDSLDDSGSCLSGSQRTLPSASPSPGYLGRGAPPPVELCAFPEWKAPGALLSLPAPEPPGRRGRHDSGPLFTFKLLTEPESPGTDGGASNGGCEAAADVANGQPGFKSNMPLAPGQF

The target of assay [1] is α1d (Homo sapiens, UniProt P25100). Conditions: read-out: Affinity (Ki, nM) α1d; recombinant cloned human receptor, CHO cell membranes, 0.2 nM [3H]prazosin.
Assay [2] deals with T1, α1a (Homo sapiens, UniProt P35348).
T1 sequence (P35348 1-466): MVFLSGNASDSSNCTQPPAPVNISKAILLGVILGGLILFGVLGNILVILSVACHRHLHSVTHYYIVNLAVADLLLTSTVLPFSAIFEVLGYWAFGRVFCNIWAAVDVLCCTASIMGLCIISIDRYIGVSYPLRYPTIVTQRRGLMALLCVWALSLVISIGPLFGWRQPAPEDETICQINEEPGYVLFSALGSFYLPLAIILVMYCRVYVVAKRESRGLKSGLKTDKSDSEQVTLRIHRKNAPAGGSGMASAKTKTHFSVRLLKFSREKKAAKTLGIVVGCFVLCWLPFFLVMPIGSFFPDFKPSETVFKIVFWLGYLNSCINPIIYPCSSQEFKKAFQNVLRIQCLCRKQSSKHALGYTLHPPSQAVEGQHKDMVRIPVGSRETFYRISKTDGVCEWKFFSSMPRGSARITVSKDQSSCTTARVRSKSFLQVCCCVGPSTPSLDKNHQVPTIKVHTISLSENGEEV
The conditions noted are these: read-out: Affinity (Ki, nM) α1a; recombinant cloned human receptor, CHO cell membranes, 0.2 nM [3H]prazosin.

The target of assay [3] is α1b (Homo sapiens, UniProt P35368).

In the case of `COc1ccccc1N1CCN(CCCNC(=O)c2cccc3c(=O)c(C)c(-c4ccccc4)oc23)CC1` [Compound A], the inhibitory constant (Ki) in assay [1] was found to be 2.84 nM; in assay [2], 0.6 nM; in assay [3] it was 3.29 nM.
